Test systems include 786-0; A498; A549; ACHN; CCRF-CEM; DLD-1; DMS-114; COLO 205; BT-549; CAKI-1.
Holding throughout (test): NCI tumour cell line growth inhibition, 48 h

The list shows a part of the results. Cut-off read from the data, not from the text of the source: active = GI50 up to about 1.1 µM and inactive = higher. These assays gave more results; the selection is not random.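 Growth conditions: 96-well plates. Treatment: test compound, 48 hours, 5 concentrations. Analysis: linear interpolation between bracketing concentrations; unreached endpoints set to highest concentration. GI50 marks 50% less growth.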 For part of these data: Entries with a potency or affinity are not part of this list.

Consider `Cc1[nH]c2c(C)c([N+](=O)[O-])c(C)c([N+](=O)[O-])c2c1[N+](=O)[O-]`, for which the GI50 was inactive: 11.4 µM with 786-0; inactive: 4.78 µM in the test with A498; inactive: 5.68 µM with A549; inactive: 7.4 µM in the test with ACHN; inactive: 4.41 µM in the test with CCRF-CEM; inactive: 11.8 µM in the test with DLD-1. Besides, the GI50 with DMS-114 was inactive: 3.26 µM.

In the case of `O=[N+]([O-])C1([N+](=O)[O-])CCCc2nonc21`, the GI50 in the test on 786-0 was inactive: 45.5 µM; with A498, inactive: 27.7 µM; in the test with A549, inactive: 37 µM; in the test on ACHN it was inactive: > 100 µM; in the test with CCRF-CEM, inactive: 26.6 µM; in the test with COLO 205 it was inactive: 22.6 µM.

As for `COc1ccc2nccc(C=O)c2c1`, the GI50 was inactive: 16.5 µM with 786-0; active: 1 µM in the test on A498; inactive: > 100 µM with A549; inactive: 5.43 µM in the test on ACHN; inactive: 11.7 µM in the test with BT-549; inactive: 37.2 µM in the test on CAKI-1. In addition, the figures for the GI50 with CCRF-CEM and in the test on COLO 205 were active: 0.316 µM and inactive: 15 µM, respectively.

Take `CCCC[S+](N)(=O)CCC(N)P(=O)(O)O` (stereo not given): the GI50 with A549 is inactive: > 100 µM; with ACHN, inactive: > 100 µM; in the test with CAKI-1, inactive: > 100 µM; with CCRF-CEM, inactive: 10 µM; with COLO 205, inactive: > 100 µM.

Consider `O=C1CCN2CCCC12` (stereo not given), for which the GI50 in the test with 786-0, in the test with A498, in the test with A549, in the test on ACHN, in the test with BT-549 and in the test on CAKI-1 was inactive: > 100 µM in each case. In addition, the GI50 with CCRF-CEM and in the test with COLO 205 was inactive: > 100 µM throughout.

As for `COP(C)(=O)C(N)Cc1ccccc1` (stereo not given), the GI50 in the test on 786-0, in the test on A549, in the test with ACHN, in the test with BT-549, in the test on CAKI-1 and with CCRF-CEM was inactive: > 100 µM in each case. Besides, the GI50 in the test on COLO 205 is inactive: > 100 µM.

Consider `Cc1ccc2ccc3ccc4ccccc4c3c2c1.O=C1c2cc([N+](=O)[O-])ccc2-c2c1cc([N+](=O)[O-])cc2[N+](=O)[O-]`, for which the GI50 in the test on 786-0 was inactive: 1.24 µM; with A498 it was inactive: 13.6 µM; with A549, inactive: 17.9 µM; with ACHN, inactive: 1.76 µM; in the test with BT-549, inactive: 1.21 µM; in the test with CAKI-1, inactive: 2.55 µM. Further, the GI50 with CCRF-CEM was active: 1 µM; in the test on COLO 205, inactive: 9.51 µM.

Consider `Cc1ccc([N+](=O)[O-])c(C[N+](C)(CCCl)CCCl)c1`, for which the GI50 was inactive: 16.9 µM in the test with 786-0; inactive: 21.5 µM with A498; inactive: 15.4 µM with A549; inactive: 6.1 µM in the test with ACHN; inactive: 18.1 µM in the test with BT-549; inactive: 5.71 µM in the test on CAKI-1. Further, the GI50 in the test on CCRF-CEM was inactive: 20.9 µM; with COLO 205, inactive: 12.5 µM.

`O[C@H]1[C@@H](O)CC2CCN3Cc4cc5c(cc4[C@H]1C23)OCO5` (stereo not given in full): the GI50 in the test on 786-0, with A549, with ACHN, in the test on CCRF-CEM, in the test on COLO 205 and in the test on DLD-1 was inactive: > 100 µM in each case. Moreover, the GI50 with DMS-114 is inactive: > 100 µM.

As to `COc1ccc(C[N+](C)(CCCl)CCCl)c([N+](=O)[O-])c1`, the GI50 in the test with 786-0 is inactive: > 100 µM; with A498 it was inactive: > 100 µM; with A549 it was inactive: > 100 µM; in the test on ACHN it was inactive: 58.7 µM; with BT-549 it was inactive: > 100 µM; in the test with CAKI-1, inactive: 63.8 µM. In addition, the GI50 in the test with CCRF-CEM was inactive: > 100 µM; in the test with COLO 205, inactive: 89.1 µM.

Consider `O=C1Nc2ccc([N+](=O)[O-])cc2/C1=N/Nc1ccc([N+](=O)[O-])cc1[N+](=O)[O-]`, for which the GI50 with 786-0 is inactive: 17.7 µM; in the test with A498 it was inactive: 14 µM; with A549 it was inactive: 18.7 µM; in the test with ACHN it was inactive: 28 µM; in the test with CAKI-1 it was inactive: 27.2 µM; in the test on CCRF-CEM, inactive: 25.5 µM. The GI50 in the test with COLO 205 is inactive: 23.2 µM; in the test with DLD-1, inactive: 39.2 µM; in the test with DMS-114 it was inactive: 29 µM.

For `ClCCSc1c2ccccc2nc2ccccc12`, the GI50 with 786-0 was inactive: 2.59 µM; in the test with A498, inactive: 16.9 µM; with A549 it was inactive: 23.6 µM; in the test on ACHN, inactive: 7.35 µM; with BT-549, inactive: 18.8 µM; with CAKI-1, inactive: 2.64 µM. Moreover, the GI50 in the test on CCRF-CEM is inactive: 2.77 µM; in the test on COLO 205, inactive: 4.73 µM.

Turning to `C[S+](N)(=O)CCC(N)P(=O)(O)O` (stereo not given), the GI50 in the test on A498, with A549, in the test with ACHN, with CAKI-1, in the test on CCRF-CEM and with COLO 205 was inactive: > 100 µM each time.

Turning to `NNc1nc2nonc2nc1NN`, the GI50 in the test on 786-0 is inactive: 23.9 µM; in the test with A498, inactive: > 100 µM; in the test with A549 it was inactive: 42.8 µM; in the test with ACHN, inactive: 43.5 µM; in the test on CAKI-1, inactive: 74.6 µM; in the test with CCRF-CEM it was inactive: 42.7 µM. The GI50 in the test on COLO 205 was inactive: 23.4 µM.

As for `O[C@@H]1CCN2CCC[C@H]12`, the GI50 with 786-0, in the test with A498, in the test on A549, in the test with ACHN, in the test on BT-549 and in the test with CAKI-1 was inactive: > 100 µM throughout. In addition, the GI50 in the test with CCRF-CEM and with COLO 205 was inactive: > 100 µM each time.

With `CCCCCCCCCCCCCNCC(C)O` (stereo not given), the GI50 is inactive: 19.4 µM with 786-0; inactive: 15.1 µM in the test on A498; inactive: 14.9 µM in the test with A549; inactive: 14.2 µM in the test with ACHN; inactive: 13.1 µM in the test on BT-549; inactive: 10.2 µM with CAKI-1. In addition, the GI50 in the test with CCRF-CEM is inactive: 4.89 µM; with COLO 205, inactive: 1.25 µM.

In the case of `O=[As](O)(O)O`, the GI50 in the test with 786-0 was inactive: > 100 µM; with A498 it was inactive: > 100 µM; in the test on A549 it was inactive: > 100 µM; in the test on ACHN, inactive: > 100 µM; in the test with BT-549 it was inactive: 82.2 µM; in the test on CAKI-1, inactive: > 100 µM. For the same molecule, the GI50 with CCRF-CEM and with COLO 205 was inactive: > 100 µM each time.

In the case of `Cc1ccc2ccc(C)c(C)c2c1.O=[N+]([O-])c1cc([N+](=O)[O-])c(O)c([N+](=O)[O-])c1O`, the GI50 is inactive: > 100 µM with 786-0; inactive: > 100 µM in the test with A498; inactive: > 100 µM in the test on A549; inactive: > 100 µM with ACHN; inactive: > 100 µM with BT-549; inactive: 58.1 µM in the test with CAKI-1. Further, in the test on COLO 205, the GI50 was inactive: > 100 µM.

`Nc1nc2c(ncn2CCN(CCCl)CCCl)c(=O)[nH]1`: the GI50 in the test on 786-0, in the test with A498, in the test on A549, in the test on ACHN, in the test on CCRF-CEM and in the test with COLO 205 was inactive: > 100 µM throughout. Further, the GI50 in the test on DLD-1 and in the test on DMS-114 was inactive: > 100 µM each time.

Turning to `CC1=CC2OC3CC4OC(=O)/C=C\C=C\C(C(C)O)OCCC(C)C(O)C(=O)OCC2(CC1O)C4(C)C31CO1` (stereo not given), the GI50 with CCRF-CEM is active: < 0.005 µM.

For the molecule `COc1ccc([N+](=O)[O-])c(C[N+](C)(CCCl)CCCl)c1`, the GI50 is inactive: > 100 µM in the test on 786-0; inactive: > 100 µM with A498; inactive: > 100 µM in the test on A549; inactive: 52 µM with ACHN; inactive: > 100 µM in the test on BT-549; inactive: 33 µM with CAKI-1. Also, the results for the GI50 with CCRF-CEM and with COLO 205 were inactive: 84.1 µM and inactive: > 100 µM, respectively.

Take `O=[N+]([O-])c1ncn(F)c1[N+](=O)[O-]`: the GI50 was inactive: > 100 µM in the test with 786-0; inactive: > 100 µM in the test with A498; inactive: > 100 µM in the test on A549; inactive: 94.6 µM in the test with ACHN; inactive: 41.2 µM in the test on CAKI-1; inactive: 60.8 µM in the test with CCRF-CEM. Besides, in the test on COLO 205, the GI50 was inactive: > 100 µM.

As for `O=[N+]([O-])C1([N+](=O)[O-])COCOC1`, the GI50 in the test with 786-0 was inactive: > 100 µM; in the test with A498 it was inactive: > 100 µM; in the test with A549 it was inactive: > 100 µM; in the test on ACHN, inactive: > 100 µM; in the test with BT-549, inactive: 27.4 µM; in the test on CAKI-1, inactive: > 100 µM. Further, the values for the GI50 in the test on CCRF-CEM and in the test with COLO 205 were inactive: 94 µM and inactive: 47.3 µM, respectively.

Values taken from ChEMBL document CHEMBL1201862, “PubChem BioAssay data set” (2004).
